Data: ChEMBL document CHEMBL1132239, “Tricyclic farnesyl protein transferase inhibitors: crystallographic and calorimetric studies of structure-activity relationships” (J Med Chem, 1999)

What was measured:
[1] = target: T1, Protein farnesyltransferase (Homo sapiens, UniProt P49354+P49356); assay: Inhibition of Farnesyltransferase; assay type: protein-complex assay
[2] = target: T1, Protein farnesyltransferase; assay: Inhibition of Farnesyl protein transferase; assay type: protein-complex assay

SMILES: O=C(Cc1ccncc1)N1CCN([C@@H]2c3ccc(Cl)cc3CCc3cccnc32)CC1
- IC50 [1]: 0.5 µM

SMILES: O=C(Cc1cc[n+]([O-])cc1)N1CCN([C@H]2c3ccc(Cl)cc3CCc3cc(Br)cnc32)CC1
- IC50 [2]: 0.011 µM
